For orientation: EC50 means the concentration needed to bring the measured effect to its halfway point. High values mean a need for much substance, low ones an effect from little substance.

Drawing on ChEMBL document CHEMBL1136895, “NO donors. Part 18: Bioactive metabolites of GTN and PETN--synthesis and vasorelaxant properties” (2009), this text covers EC50 for four compounds.

The assay is described as follows: Vasorelaxant activity in pig pulmonary artery by organ bath experiment.

`O=[N+]([O-])OCC(CO)(CO[N+](=O)[O-])CO[N+](=O)[O-]`: it took 30 nM to reach a half-maximal effect (EC50).
The result for `O=[N+]([O-])OCC(O)CO[N+](=O)[O-]` reads 523 nM; that for `O=[N+]([O-])OCC(CO[N+](=O)[O-])(CO[N+](=O)[O-])CO[N+](=O)[O-]`, 7 nM.
The result for `O=[N+]([O-])OCC(CO)O[N+](=O)[O-]` (centres undefined) reads 1930 nM.
